This assay has as its target Cdc8-coated F-actin (chicken | fission yeast (S. pombe)) (UniProt P68139). Description: single-molecule TIRF microscopy (spot density); 1.5 μM Mg-ATP actin (Alexa 488-labeled), 500 nM Ain1 (0.5% TMR-labeled) alone or with 1 μM (dimer) unlabeled Cdc8; Ain1 events/μm/s on bundles from kymographs; room temperature.

For the substance “α-actinin Ain1, wild type (His-tagged) (from UniProt O13728 1-621) (natural protein)”, the fold of Ain1 binding events against uncoated F-actin stood at 3 fold.

Values taken from PMC6557641.
